Values of other authors as cited in patent US20210221784A1, “COMPOUNDS AND COMPOSITIONS FOR THE TREATMENT OF PAIN” (Université de Strasbourg, priority 2018, published 2021).

Tested on: C57BF6/N male mice
Conditions: previous work, Elhabazi et al. 2012; cited from earlier work

For “N^α-adamantan-1-yl-L-Arg-L-Phe-NH2 acetate”, the “development of fentanyl-induced hyperalgesia” value is given as “prevents the development of fentanyl-induced hyperalgesia”.
